Test results from ChEMBL document CHEMBL5375989, “Pioneering 4,11-Dioxo-4,11-dihydro-1H-anthra[2,3-d]imidazol-3-ium Compounds as Promising Survivin Inhibitors by Targeting ILF3/NF110 for Cancer Therapy” (J Med Chem, 2023).

Amino acid sequences for entries named in this document (tags omitted).
UniProt Q12906, whole entry: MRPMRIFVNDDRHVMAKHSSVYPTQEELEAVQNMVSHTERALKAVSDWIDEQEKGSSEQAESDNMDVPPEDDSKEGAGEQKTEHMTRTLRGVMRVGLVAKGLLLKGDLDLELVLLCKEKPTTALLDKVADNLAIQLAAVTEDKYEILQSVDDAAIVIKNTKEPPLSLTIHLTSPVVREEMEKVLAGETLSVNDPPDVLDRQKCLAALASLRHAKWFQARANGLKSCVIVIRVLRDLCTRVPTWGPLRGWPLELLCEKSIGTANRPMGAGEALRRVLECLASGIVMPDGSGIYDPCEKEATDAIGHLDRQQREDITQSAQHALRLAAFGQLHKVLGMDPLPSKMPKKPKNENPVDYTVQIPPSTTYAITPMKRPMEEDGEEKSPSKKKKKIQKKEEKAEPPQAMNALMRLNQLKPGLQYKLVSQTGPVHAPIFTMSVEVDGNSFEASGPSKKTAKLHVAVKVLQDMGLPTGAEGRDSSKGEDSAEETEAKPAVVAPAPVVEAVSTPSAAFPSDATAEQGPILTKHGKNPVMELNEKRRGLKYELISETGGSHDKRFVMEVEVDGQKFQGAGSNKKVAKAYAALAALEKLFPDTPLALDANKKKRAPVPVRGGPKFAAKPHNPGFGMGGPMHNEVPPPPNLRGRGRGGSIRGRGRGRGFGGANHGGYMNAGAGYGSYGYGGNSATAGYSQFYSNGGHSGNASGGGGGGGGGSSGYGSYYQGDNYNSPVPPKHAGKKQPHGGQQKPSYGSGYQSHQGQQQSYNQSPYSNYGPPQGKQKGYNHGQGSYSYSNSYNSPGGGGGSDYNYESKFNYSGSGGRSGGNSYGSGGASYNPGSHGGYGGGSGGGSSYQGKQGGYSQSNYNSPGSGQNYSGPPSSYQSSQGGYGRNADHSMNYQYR

Biological target: Interleukin enhancer-binding factor 3 (Homo sapiens, UniProt Q12906)
Assay: Binding affinity to ILF3 (unknown origin) assessed as association rate constant at upto 1 uM by SPR method

| SMILES | K [M⁻¹ s⁻¹] |
| --- | --- |
| COCC[n+]1c2c(n(Cc3cnccn3)c1C)C(=O)c1ccccc1C2=O.[Br-] [SEPANTRONIUM BROMIDE] | 110000 |
| Cn1c[n+](C)c2c1C(=O)c1cc3ccccc3cc1C2=O | 360000 |
